ChEMBL document CHEMBL1131777, “Analogs of 4-(3-bromo-8-methyl-10-methoxy-6,11-dihydro-5H-benzo[5,6]-cyclo hepta[1,2-b]pyridin-11-yl)-1-(4-pyridinylacetyl)piperidine N-oxide as inhibitors of farnesyl protein transferase” (Bioorg Med Chem Lett, 1999)

Target: Protein farnesyltransferase (Homo sapiens, UniProt P49354+P49356)
Experiment: In vitro inhibition of human Farnesyltransferase
Format: protein-complex assay

NC(=O)N1CCC(CC(=O)N2CCC([C@H]3c4ncc(Br)cc4CCc4cc(Cl)cc(Br)c43)CC2)CC1 [LONAFARNIB]
IC50: 1900 nM
